Results taken from ChEMBL document CHEMBL4673253, “Discovery of EST73502, a Dual μ-Opioid Receptor Agonist and σ Receptor Antagonist Clinical Candidate for the Treatment of Pain” (J Med Chem, 2020).
Active and inactive are the calls of the source. The rule behind the calls is not given here.

Columns and labels:
Mus musculus [1] = assay: Antinociceptive activity in CD1 mouse at 10 to 40 mg/kg, po co-treated with 2 mg/kg, sc MOR antagonist naloxone by paw pressure test; settings: dose 10-40 mg/kg
Mus musculus [2] = assay: Antinociceptive activity in orally dosed CD1 mouse assessed as by paw pressure test; type: functional

Compound: CCN1CC2(CCN(CCc3cc(F)ccc3F)CC2)O[C@H](C)C1=O
- Activity (Mus musculus [1]): inactive
- Activity (Mus musculus [2]): Dose-dependent effect
